Experimental data: ChEMBL document CHEMBL1128265, “Three-dimensional quantitative structure-activity relationship (QSAR) of HIV integrase inhibitors: a comparative molecular field analysis (CoMFA) study” (J Med Chem, 1995)

Key:
[1] = biological target: T1, Human immunodeficiency virus type 1 integrase (Human immunodeficiency virus 1, UniProt Q7ZJM1)
[2] = biological target: T1, Human immunodeficiency virus type 1 integrase; remark: listed apart in the source

IC50 [1]: 4300 nM
IC50 [2]: 1200 nM
Compound: O=c1cc(-c2ccccc2)oc2cc(O)c(O)c(O)c12 [BAICALEIN]
